# Antibody variant affinities, Ab-14 light chain, assay B

Antigen: PDVDLGDISGINAS, a 14-residue peptide of the SARS-CoV-2 spike HR2 region.

Parent: Ab-14, a human scFv built as VH, a 15-residue (Gly4Ser)3 linker, VL. Only the CDRs of the light chain vary.
VH: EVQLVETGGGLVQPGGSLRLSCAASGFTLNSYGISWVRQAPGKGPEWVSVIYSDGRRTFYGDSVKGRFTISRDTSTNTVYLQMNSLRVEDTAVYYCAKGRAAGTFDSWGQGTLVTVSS
VL: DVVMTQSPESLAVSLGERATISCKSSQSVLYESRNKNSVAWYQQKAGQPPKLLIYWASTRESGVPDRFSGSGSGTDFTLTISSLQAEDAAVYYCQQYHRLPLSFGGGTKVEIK

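Phage display of a naive human antibody library on the peptide gave the parent. This is the validation round: designs drawn from the data on random variants, tested in the same kind of assay. Their group label is 14L_En_HC (En: ensemble of fine-tuned language models; HC: hill climbing; a sequence that several methods proposed may carry one label only). Affinity was read by AlphaSeq, a pooled yeast mating assay with surface-displayed partners. Pairs that bind mate more often; barcode pairs of the diploids are counted by sequencing. Scores were corrected for input abundance and mapped to Kd with protein pairs of known affinity run in the same pool. Each pool was mated in six replicate cultures.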

Variants are written as CDR1, CDR2 and CDR3 of the light chain (limits as in the source). Parent: KSSQSVLYESRNKNSVA, WASTRES, QQYHRLPLS.
Numbers give log10(Kd / nM), so 0 is 1 nM and 3 is 1 µM. Smaller is tighter.
The mean shown is taken over the replicates in which the pair was detected.
"ND" means that the variant was in the library but no mating with the target was seen in that replicate; the authors take this as a sign of poor binding, and no number exists.
Empty control strains, which show no peptide, gave a signal in 4% of pairings with all light chain designs; the median was 2.64 and 95% of these signals were weaker than 1.59. No background was subtracted. For each scFv, signals with the empty controls are counted beside the result, with their mean in brackets.
The authors averaged sequences with at least three values out of six and counted those with two or fewer as poor binders.
A sequence measured in both rounds can read differently, since the two assays cover different ranges.

CDR-L1	CDR-L2	CDR-L3	log10 Kd, replicates	log10 Kd (nM), mean	control signals
MITAMLRGVGRDKNSVA	NAQTREN	QHYHRLPLS	ND / ND / ND / ND / ND / ND	ND	0/18
KISMLFNYESTNKNSIA	EMTTRES	QHYHRLPLS	0.58 / 0.49 / 0.46 / 0.36 / 0.25 / 0.67	0.47	1/18 (1.91)
KIGHGLTTESFNKNSVA	QTETRES	QHYHRLPLS	ND / 3.17 / ND / ND / 2.23 / ND	2.70	1/18 (2.94)
SFSQSVLYEQVHKNNVA	QTSTRES	QQYDHLPLS	0.34 / 0.26 / 0.26 / 0.23 / 0.21 / 0.39	0.28	0/18
KLGGATRFESSNKASIA	NNSTREE	QQYHRLPLS	0.55 / 0.85 / 0.68 / 0.46 / 0.41 / 0.83	0.63	3/18 (2.22)
MFSQLTYTGSRTRNAVA	QASTREN	QQYHRLPLS	1.69 / 0.47 / 1.03 / 0.16 / 0.37 / 0.90	0.77	0/18
NISESMYFQTRMKNNIA	EVTTRER	QHYHRLPLS	1.55 / 0.54 / 1.07 / 1.05 / 1.20 / 0.76	1.03	1/18 (2.30)
TISQSWNMTSRGKNSVA	QAEMREK	QQYDRLPLS	0.98 / 0.45 / 1.07 / 1.07 / 1.09 / 1.17	0.97	1/18 (1.89)
KILQEIENQSYNRNSVA	HQSTRED	QSYHRLPLS	1.18 / 1.44 / 1.59 / 1.29 / 1.25 / 1.39	1.36	1/18 (3.65)
ALGDVTRMESNKKNSIA	DMSNRAD	QQYHRLPLS	0.04 / 0.23 / -0.18 / 0.09 / -0.08 / 0.20	0.05	2/18 (2.51)
KLSMSYRFLTEEKNSIA	ELVTRMS	QQYHRLPLS	1.42 / 1.85 / 2.29 / 0.71 / 1.92 / 1.62	1.64	0/18
KLYQSMGYLSRMKNSIA	DMSRRES	QQYHRLPLS	0.61 / 0.38 / 0.27 / 0.27 / 0.34 / 0.54	0.40	3/18 (2.78)
TISQSTYWEQFNKNSVA	QTSTREE	QDYDRLPLS	2.46 / ND / ND / ND / ND / ND	2.46	0/18
KIGQTVTYESTNKNAIA	QMTTREE	QQYHRLPLS	1.31 / 1.63 / 0.73 / 1.24 / 0.81 / 1.33	1.17	0/18
HISVSVGMTSFNKNSVA	ENSTREN	QQYDRLPLS	1.29 / 1.43 / 1.03 / 0.89 / 0.82 / 1.39	1.14	0/18
ILSQSVLMGSHLKNSVA	QASTRFS	QQYHRLPLS	0.06 / 0.54 / 0.43 / 0.42 / 0.33 / 0.48	0.38	0/18
TISTSMRYESSLKNAIA	NAQTRES	QQYARLPLS	0.09 / 0.05 / 0.01 / -0.26 / 0.07 / -0.01	-0.01	2/18 (3.03)
NISESMFYQSRNKNNIA	EMSTRER	QHYHRLPLS	0.62 / 0.12 / 0.37 / 0.03 / 0.07 / 0.31	0.25	1/18 (1.36)
IITQSVMQESKNKRNVA	NTSEREP	QQYDRLPLI	1.65 / 2.07 / 1.46 / 1.78 / 1.81 / 1.67	1.74	0/18
HISQMVMYGSCNKNNVA	QVSTREE	QSYHRLPLS	2.99 / 2.33 / 1.55 / 1.61 / 1.69 / ND	2.03	0/18
KLSESAHFESRKKNSVA	ENSTRES	QQYEHLPLS	ND / ND / ND / 2.93 / ND / ND	2.93	1/18 (2.16)
KISGYLNHESKNKNSVA	EMVNRES	QQYDRLPLS	0.85 / 0.66 / 0.55 / 0.73 / 0.62 / 0.79	0.70	2/18 (2.30)
KLYQATAMTSSVRNNVA	DLNERER	QQYFRLPLS	0.35 / 0.29 / 0.42 / 0.21 / 0.32 / 0.46	0.34	4/18 (3.15)
TIAESMLYLSNLKNSIA	QAETRED	QQYHRLPIS	0.74 / 0.96 / 0.50 / 0.48 / 0.54 / 0.75	0.66	1/18 (2.72)
TVGQVTMVESYNKDSVA	QASTRLQ	QDYHRLPLS	0.51 / 0.79 / 0.37 / 0.73 / 0.49 / 0.58	0.58	2/18 (2.74)
KLYAATMLESHDKNSIA	DLSTRGN	QQYHRLPLS	0.52 / 0.84 / 0.48 / 0.65 / 0.57 / 0.62	0.61	0/18
KIGMQVTYQSTVNNAIA	QMTTREE	QQYHRLPLS	0.68 / 0.41 / 0.48 / 0.52 / 1.19 / 0.99	0.71	0/18
KVNQLMNIEQMNNKSVA	HTSTREN	QQYHRLPLS	ND / ND / 1.46 / ND / ND / 2.27	1.87	1/18 (1.74)
ILSQSVLMGMHLKNSVA	QASTRFQ	QQYHRLPLM	0.39 / 0.40 / -0.31 / 0.44 / 0.05 / -0.36	0.10	0/18
ALSQSMDMTSRNYNSVA	DLSTREN	QQYHRLPLS	0.36 / 0.25 / 0.23 / 0.13 / 0.04 / 0.19	0.20	1/18 (3.34)
MITAVLRGVGRDKNSVA	NAQTRES	QHYNRLPLS	2.00 / 1.88 / 1.81 / 1.56 / 1.19 / 1.82	1.71	0/18
HISQSFMQESVWRNNIA	HQSTREQ	QQYDRLPFS	0.58 / 0.60 / 0.35 / 0.47 / 0.43 / 0.79	0.54	0/18
ILSQSVLMGMHLKNSVA	QATVRFN	QQYHRLPLM	ND / ND / ND / ND / 2.17 / ND	2.17	0/18
NFSQMVLTGSTLRNSVA	HASTRFN	QQYHRLPLI	2.24 / 2.07 / 1.70 / 1.63 / 2.15 / 2.15	1.99	1/18 (2.82)
HILQNMMYQSRNINSVA	HQSTRED	QQYHSLPLS	1.30 / 1.13 / 1.35 / 1.01 / 1.18 / 1.17	1.19	0/18
KISQTFNVGTKNKNSLA	EMSTRGF	QDYYRLPLS	2.22 / 2.93 / 2.29 / 2.60 / 2.57 / 2.77	2.56	1/18 (3.75)
HLSQSVDLESVHKNSIA	DLMTREE	QQYHRLPLS	0.50 / 0.05 / -0.14 / 0.21 / 0.12 / 0.32	0.18	0/18
ALSQVMDMTSRNVNSVA	DLTTREN	QQYHRLPLS	0.62 / 0.32 / 0.58 / 0.24 / 0.37 / 0.77	0.48	3/18 (3.59)
HLLQTVMYGQSRRNSVA	HAVTREN	QQYHRLPLS	ND / ND / ND / ND / ND / ND	ND	0/18
KLRMMTLTGGYFKNSVA	QVSTREN	QSYHRLPLS	2.21 / 1.32 / 1.94 / 2.38 / 1.82 / 2.36	2.01	0/18
TISNSFMMENQFKNSVA	QATTREN	QCYDRLPLS	2.90 / 1.94 / 2.43 / 2.03 / 2.26 / 1.83	2.23	0/18
HISYSMQHLSKNKNSVA	NQQTREQ	QQYHMLPLS	0.87 / 0.70 / 0.25 / 0.11 / 1.01 / 0.80	0.62	0/18
IISQVDGYESRNKNSIA	DQSTRGS	QQYDRLPLS	0.58 / 0.72 / 0.76 / 0.64 / 1.05 / 1.21	0.83	0/18
KISGMVNFESTHINAVA	QMSTREE	QQYFRLPLS	0.71 / 0.52 / 1.47 / 1.24 / 0.38 / 0.61	0.82	1/18 (1.52)
KISMMSTIESIMHNSVA	QTSEREN	QQYDRLPLS	0.97 / 1.07 / 1.35 / 0.47 / 0.97 / 1.18	1.00	1/18 (2.77)
TISQMWFLESHNKNNVA	EESTRED	QSYFRLPLS	1.03 / 0.75 / 0.89 / 1.48 / 1.57 / 1.08	1.13	0/18
IVSQSVMGETRNKNSVA	QTSERNY	QQYDRLPLS	1.08 / 0.84 / 0.77 / 0.65 / 0.70 / 0.87	0.82	2/18 (2.94)
NVGQSMDGEHRNKNSVA	HQSTRED	QHYHRLPLS	1.57 / 2.65 / ND / 2.53 / 1.68 / ND	2.11	1/18 (1.94)
IISQSVLGENHNKNSVA	QTSERGS	QQYDRLPLS	1.46 / 1.02 / 1.21 / 1.02 / 1.02 / 1.56	1.22	3/18 (2.34)
TLSHSTDLETVHKNSIA	DLMTRES	QQYDRLPLS	0.47 / 0.64 / 0.53 / 0.69 / 0.60 / 0.74	0.61	0/18

Excerpt, the first 4 entries:

| CDR-L1 | CDR-L2 | CDR-L3 | log10 Kd, replicates | log10 Kd (nM), mean | control signals |
|---|---|---|---|---|---|
| MITAMLRGVGRDKNSVA | NAQTREN | QHYHRLPLS | ND / ND / ND / ND / ND / ND | ND | 0/18 |
| KISMLFNYESTNKNSIA | EMTTRES | QHYHRLPLS | 0.58 / 0.49 / 0.46 / 0.36 / 0.25 / 0.67 | 0.47 | 1/18 (1.91) |
| KIGHGLTTESFNKNSVA | QTETRES | QHYHRLPLS | ND / 3.17 / ND / ND / 2.23 / ND | 2.70 | 1/18 (2.94) |
| SFSQSVLYEQVHKNNVA | QTSTRES | QQYDHLPLS | 0.34 / 0.26 / 0.26 / 0.23 / 0.21 / 0.39 | 0.28 | 0/18 |

Values reported by Li et al. 2023, doi:10.1038/s41467-023-39022-2 (FLAb copy).